# Measurements from ChEMBL document CHEMBL1155235, “Synthesis and pharmacological evaluation of sulfamide-based analogues of anandamide” (Eur J Med Chem, 2009).
# Amino acid sequences for entries named in this document (tags omitted).
# UniProt P20272, whole entry: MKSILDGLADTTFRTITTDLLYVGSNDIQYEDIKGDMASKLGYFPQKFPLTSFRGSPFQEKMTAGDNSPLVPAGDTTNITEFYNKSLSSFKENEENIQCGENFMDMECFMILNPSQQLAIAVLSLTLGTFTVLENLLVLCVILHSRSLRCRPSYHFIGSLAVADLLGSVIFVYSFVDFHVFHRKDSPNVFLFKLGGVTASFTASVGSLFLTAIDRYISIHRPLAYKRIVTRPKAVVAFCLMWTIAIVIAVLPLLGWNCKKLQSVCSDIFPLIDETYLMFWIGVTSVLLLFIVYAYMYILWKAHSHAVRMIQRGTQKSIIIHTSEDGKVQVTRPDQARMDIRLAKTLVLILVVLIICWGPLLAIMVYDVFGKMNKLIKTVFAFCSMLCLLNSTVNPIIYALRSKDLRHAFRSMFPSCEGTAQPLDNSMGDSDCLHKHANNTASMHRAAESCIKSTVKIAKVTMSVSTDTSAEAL
# Target: Cannabinoid receptor 1 (Rattus norvegicus, UniProt P20272)
# Experiment: Displacement of [3H]SR141716A from CB1 receptor in rat cerebellar membrane after 90 mins by scintillation counting
# Assay type: cell membranes, Cerebellum
# Procedure, shortened: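 Cerebellar membranes incubated in triplicate with radioligand ([3H]SR141716A 0.4 nM; [3H]WIN-55212-2 1 nM) and compound at 10^-5 to 10^-12 M final. Compounds were dissolved in DMSO, then diluted in 20 mM HEPES pH 7.4 with 1 mM MgCl2 and 0.5% fatty-acid-free BSA. Incubation was 30 °C for 90 min, stopped with ice-cold buffer and filtered on GF/C. Ki was derived by Cheng–Prusoff using fixed, independently measured Kd.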
smiles,measurement,value
CCCCC/C=C\C/C=C\C/C=C\C/C=C\CCCC(=O)NCCO [ANANDAMIDE],Ki,132 nM
